Data published in patent US12371675B2, “Process and microorganism for synthesis of adipic acid from carboxylic acids” (THE GOVERNING COUNCIL OF THE UNIVERSITY OF TORONTO, priority 2015, dated 2025).

Experiment: In vitro conversion of adipic acid to 6-aminocaproic acid by MAB_4714c coupled with ATs
Conditions: 20 mM adipic acid, 12 h, AT coupled with MAB_4714c, glutamate as amino-donor

B1: gabT: aminotransferase (AT) from Escherichia coli (protein)
chain: MNSNKELMQRRSQAIPRGVGQIHPIFADRAENCRVWDVEGREYLDFAGGIAVLNTGHLHPKVVAAVEAQLKKLSHTCFQVLAYEPYLELCEIMNQKVPGDFAKKTLLVTTGSEAVENAVKIARAATKRSGTIAFSGAYHGRTHYTLALTGKVNPYSAGMGLMPGHVYRALYPCPLHGISEDDAIASIHRIFKNDAAPEDIAAIVIEPVQGEGGFYASSPAFMQRLRALCDEHGIMLIADEVQSGAGRTGTLFAMEQMGVAPDLTTFAKSIAGGFPLAGVTGRAEVMDAVAPGGLGGTYAGNPIACVAALEVLKVFEQENLLQKANDLGQKLKDGLLAIAEKHPEIGDVRGLGAMIAIELFEDGDHNKPDAKLTAEIVARARDKGLILLSCGPYYNVLRILVPLTIEDAQIRQGLEIISQCFDEAKQ
In the case of B1, the “In vitro conversion efficiency (%) to 6-aminocaproic acid” value is reported as 21.3 ± 0.8%.

B2: SAV2583: aminotransferase (AT) from Streptomyces avermitilis (protein)
chain: MSALPQERRVVTAIPGPKSQELQARRTAVVAAGVGSVLPVFTTRAGGGIIEDVDGNRLIDFGSGIAVTSVGASAEAVVRRASAQLQDFTHTCFMVTPYEGYVAVAEALAELTPGDHAKKSALFNSGAEAVENAVKIARAYTKRQAVVVFDHGYHGRTNLTMALTAKNMPYKNGFGPFAPEVYRVPVAYGYRWLTGPENAGAEASAQAIDMINKQIGADNVAAIIIEPVLGEGGFIEPAKGFLPAISKFAKDNGIVFVADEIQSGFCRTGQWFACEDEGIVPDLITTAKGIAGGLPLAAVTGRAEIMDAAHAGGLGGTYGGNPVACAGALGAIETMKELDLNAKAKNIEAVMKARLGAMAEKFDIIGDVRGRGGMIAIELVKDRDTKEPNPEAAGALAKACHQEGLLVLTCGTYGNVLRFLPPLVIGEDLLNEGLDIIEQAFSRI
For B2, the “In vitro conversion efficiency (%) to 6-aminocaproic acid” value was 19.5 ± 0.4%.
